According to article PMC11911400, “Mechanism of ASF1 engagement by CDAN1” (Nature Communications, 2025):

Molecular target: T1, Strep-tagged CDAN1 (ST-CDAN1), wildtype (human, UniProt Q8IWY9 1-1227)
T1 construct: Codanin-1 (CDAN1), human, 1227 residues; cDNA from Horizon Discovery/Dharmacon, its point mutation S421F corrected; same construct used in Expi293 and in Flp-In 293 T-REx cells; dimer by SEC-MALS and cryo-EM; also called Strep-CDAN1; WT CDAN1; source: Expi293, transiently transfected, in lysate and purified in complexes (anti-FLAG, Strep-Tactin); Flp-In 293 T-REx, transiently transfected, in …
T1 sequence: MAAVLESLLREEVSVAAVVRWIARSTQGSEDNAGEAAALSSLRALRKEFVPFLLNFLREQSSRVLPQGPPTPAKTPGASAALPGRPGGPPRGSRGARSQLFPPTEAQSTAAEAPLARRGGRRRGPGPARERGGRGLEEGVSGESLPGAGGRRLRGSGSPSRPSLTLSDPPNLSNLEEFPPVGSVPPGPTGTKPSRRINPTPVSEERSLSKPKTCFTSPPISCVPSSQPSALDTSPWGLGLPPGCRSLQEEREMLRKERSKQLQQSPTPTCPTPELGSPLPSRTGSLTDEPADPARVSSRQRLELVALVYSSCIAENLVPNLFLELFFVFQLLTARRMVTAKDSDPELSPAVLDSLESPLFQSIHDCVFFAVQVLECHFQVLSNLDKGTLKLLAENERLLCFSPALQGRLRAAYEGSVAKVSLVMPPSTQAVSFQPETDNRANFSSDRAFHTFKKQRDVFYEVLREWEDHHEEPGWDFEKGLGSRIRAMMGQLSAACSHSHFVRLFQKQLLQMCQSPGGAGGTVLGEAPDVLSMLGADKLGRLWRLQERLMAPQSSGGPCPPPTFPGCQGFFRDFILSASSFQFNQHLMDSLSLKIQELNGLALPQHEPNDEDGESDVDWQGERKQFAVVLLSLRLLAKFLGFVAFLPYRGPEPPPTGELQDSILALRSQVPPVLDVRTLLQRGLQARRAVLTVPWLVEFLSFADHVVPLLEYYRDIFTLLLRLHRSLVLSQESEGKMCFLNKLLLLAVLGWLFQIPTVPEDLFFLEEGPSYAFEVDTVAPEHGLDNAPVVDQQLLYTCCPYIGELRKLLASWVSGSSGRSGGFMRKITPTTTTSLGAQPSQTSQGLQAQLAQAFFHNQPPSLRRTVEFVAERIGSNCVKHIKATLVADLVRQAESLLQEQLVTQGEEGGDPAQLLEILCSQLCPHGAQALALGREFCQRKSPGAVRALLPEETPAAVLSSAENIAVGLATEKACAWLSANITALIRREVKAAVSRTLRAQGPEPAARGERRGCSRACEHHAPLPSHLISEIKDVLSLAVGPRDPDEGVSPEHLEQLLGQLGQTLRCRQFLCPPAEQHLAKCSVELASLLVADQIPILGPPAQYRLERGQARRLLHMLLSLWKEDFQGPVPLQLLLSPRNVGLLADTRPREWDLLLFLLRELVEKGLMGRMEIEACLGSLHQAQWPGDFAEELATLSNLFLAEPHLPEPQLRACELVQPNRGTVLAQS
Assay: SEC-MALS; 200 µg of each purified complex at 5 µM on SRT SEC-300 column, PBS pH 7.4 with 1 mM DTT; DAWN HELEOS II; dn/dc 0.185
Conditions: both partners purified

B1: FLAG-tagged ASF1A (F-ASF1A) (natural protein)
chain: not shown
notes: ASF1A (Anti-Silencing Function 1 A), human; cDNA synthesized by IDT; same construct used in Expi293 and in Flp-In 293 T-REx cells; also called FLAG-ASF1A; source: Expi293, transiently transfected, in lysate and purified in the C:A complex (anti-FLAG, Strep-Tactin); Flp-In 293 T-REx, co-transfected, in lysate; not shown: 3xFLAG, N-terminal, kept
  stoichiometry N: 3 ASF1A per two CDAN1

B2: HA-tagged ASF1A (natural protein)
chain: not shown
notes: ASF1A (Anti-Silencing Function 1 A), human; cDNA synthesized by IDT; also called HA-ASF1A; ASF1A-1; source: Expi293, transiently transfected, in lysate and purified in the C:C:A complex (anti-FLAG, Strep-Tactin); not shown: 3xHA, N-terminal, kept
  stoichiometry N: 3 ASF1A per two CDAN1
